{"source": "patent US9925263B2", "about": "“Liquid pharmaceutical formulations for injection comprising procaine and uses thereof” (EAGLE BIOLOGICS, INC., priority 2013, dated 2018)", "key": {"[1]": {"system": "HERCEPTIN®", "assay": "Viscosity of aqueous solutions of HERCEPTIN® with viscosity-lowering agents", "assay_type": "physicochemical", "conditions": "236 mg/mL HERCEPTIN; […] agent; 25° C."}, "[2]": {"system": "biosimilar RITUXAN®", "assay": "Viscosity of aqueous solutions of biosimilar RITUXAN® with viscosity-lowering agents;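 also: absolute viscosity of aqueous antibody solutions determined by microfluidic viscometry (mVROC chip, 50 micron channel) at several flow rates after 5 min equilibration, mean of at least three readings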", "conditions": "25° C."}, "[3]": {"system": "biosimilar AVASTIN®", "assay": "Viscosity of aqueous solutions of biosimilar AVASTIN® with viscosity-lowering agents", "assay_type": "physicochemical", "protocol": "(§1) (unless otherwise indicated).\nThe protein was formulated to contain either 0.25 M phosphate buffer or 0.25 M CSAL.\n(§2) Subsequently, the appropriate amount of viscosity-lowering agent was added to result in a final viscosity-lowering agent concentration of 0.15-0.35 M upon reconstitution.\nThe viscosity-lowering agent(s) were added in an amount sufficient to give concentration upon reconstitution as specified below. In cases of combinations of agents, the concentration of each component is 0.15 M. The protein solutions were then freeze-dried."}, "[4]": {"system": "ENBREL®"}, "[5]": {"system": "branded AVASTIN®", "assay": "Viscosity of aqueous solutions of branded AVASTIN®", "assay_type": "physicochemical", "conditions": "205 ± 5 mg/mL mAb; phosphate buffer or 0.25M CSAL; 25° C., pH 7.0", "protocol": "as §1, §2"}, "[6]": {"system": "REMICADE®", "assay": "Monomer content of […]® solutions by size exclusion chromatography", "assay_type": "physicochemical", "conditions": "pre-syringe; REMICADE 220-230 mg/mL (per agent), 0.25M agent", "protocol": "Biophysical properties of solutions of […]® formulated with 0.25 M CSAA were assessed over 90 days. Samples of […]® formulated with 0.25 M CSAA were prepared as described in Example 1 above.\n(§3) Following reconstitution, the viscosity of each solution was measured using the microfluidic viscometer as described in previous examples. The solutions were then back-loaded into 1 mL BD insulin syringes with 27, 29, or 31 gauge fixed needles. The force required to extrude the concentrated […]® solutions was then measured using an Instron at a rate of displacement equivalent to a fluid flow rate of 3 mL/min. The expelled solution was collected from the syringe and analyzed by size-exclusion chromatography."}, "[7]": {"system": "VECTIBIX®", "assay": "Viscosity of aqueous solutions of VECTIBIX® with viscosity-lowering agents", "assay_type": "physicochemical", "conditions": "0.25M agent, 25° C., pH 7.0", "source_text": "as §1"}, "[8]": {"system": "REMICADE®", "assay": "Syringe extrusion force of concentrated […]® solutions (Instron)", "assay_type": "physicochemical", "conditions": "27, 29, 31 gauge needles, REMICADE 220-230 mg/mL, 0.25M", "protocol": "as §3"}, "[9]": {"system": "branded ERBITUX®", "assay": "Viscosity of aqueous solutions of branded ERBITUX®", "assay_type": "physicochemical", "conditions": "224 ± 4 mg/mL mAb; phosphate buffer or 0.25M BSAA; 25° C., pH 7.0", "source_text": "as §1"}, "[10]": {"system": "ARZERRA®", "assay": "Viscosity of aqueous solutions of ARZERRA® with viscosity-lowering agents", "assay_type": "physicochemical", "conditions": "0.25M agent, 25° C., pH 7.0", "source_text": "as §1"}}, "note": "Read-outs that look alike come from different tables or passages of the source.", "data": [{"compound": "CSA-piperazine", "values": [{"measurement": "Viscosity", "setting": "[1]", "result": "50.3 ± 0.6", "unit": "cP"}, {"measurement": "Viscosity", "setting": "[2]; 191 mg/mL mAb, […] agent", "result": "57.5 ± 0.4", "unit": "cP"}, {"measurement": "Viscosity", "setting": "[3]; 212 mg/mL mAb, […] agent, pH 7.0, 25° C., microfluidic", "result": "64.5 ± 13.1", "unit": "cP"}]}, {"compound": "sodium phosphate buffer [PB, reference compound]", "values": [{"measurement": "Viscosity", "setting": "[4]; 212 ± 7 mg/mL ENBREL", "result": "316 ± 11"}, {"measurement": "Viscosity", "setting": "[4]; 250 ± 3 mg/mL ENBREL", "result": "439 ± 11"}, {"measurement": "Viscosity", "setting": "[4]; 271 ± 0 mg/mL ENBREL", "result": "1120 ± 26"}, {"measurement": "Viscosity, Branded AVASTIN ®", "setting": "[5]", "result": "154 ± 4", "unit": "cP"}, {"measurement": "Viscosity", "setting": "[2]; 199 mg/mL mAb, 0.25M", "result": "251 ± 1", "unit": "cP"}, {"measurement": "Viscosity", "setting": "[2]; 215 mg/mL mAb, 0.25M", "result": "636 ± 32", "unit": "cP"}, {"measurement": "Viscosity", "setting": "[2]; 240 mg/mL mAb, 0.25M", "result": "1270 ± 153", "unit": "cP"}, {"measurement": "Viscosity", "setting": "[2]; 202 ± 2 mg/mL RITUXAN, 0.25M agent, pH 7.0", "result": "251 ± 1"}, {"measurement": "% Monomer", "setting": "[6]", "result": "98.8 ± 0.0", "unit": "%"}, {"measurement": "Viscosity", "setting": "[7]; 233 ± 4 mg/mL VECTIBIX", "result": "38.7 ± 1.8", "unit": "cP"}, {"measurement": "Viscosity", "setting": "[7]; 252 ± 3 mg/mL VECTIBIX", "result": "80.3 ± 3.3", "unit": "cP"}, {"measurement": "Viscosity", "setting": "[7]; 291 ± 3 mg/mL VECTIBIX", "result": "328 ± 12", "unit": "cP"}, {"measurement": "Ability to be expelled through the syringe", "setting": "[8]; listed as Phosphate Buffer", "result": "could not be"}, {"measurement": "Ability to be expelled through the syringe", "setting": "[8]; listed as phosphate buffer", "result": "could not be expelled"}, {"measurement": "Branded ERBITUX ® viscosity", "setting": "[9]", "result": "556 ± 20", "unit": "cP"}, {"measurement": "Viscosity", "setting": "[10]; 245 ± 4 mg/mL ARZERRA", "result": "120 ± 4", "unit": "cP"}, {"measurement": "Viscosity", "setting": "[10]; 274 ± 10 mg/mL ARZERRA", "result": "349 ± 2", "unit": "cP"}]}, {"compound": "Creatinine Thiamine HCl", "values": [{"measurement": "Viscosity", "setting": "[3]; 228 mg/mL mAb, agent […], 25° C.", "result": "59.6 ± 0.5", "unit": "cP"}]}, {"compound": "NCCCC[C@H](N)C(=O)O.O=S(=O)(O)c1ccccc1", "note": "[BSAL, benzenesulfonic acid lysine]", "values": [{"measurement": "Viscosity", "setting": "[3]; 230 ± 5 mg/mL mAb, pH 7.0, […], 30° C.", "result": "175 ± 7", "unit": "cP"}]}, {"compound": "Lactobionic acid-tris", "values": [{"measurement": "Viscosity", "setting": "[2]; 211 mg/mL mAb, […] agent", "result": "130 ± 1", "unit": "cP"}, {"measurement": "Viscosity", "setting": "[3]; 219 mg/mL mAb, […] agent, pH 7.0, 25° C., microfluidic", "result": "109 ± 5", "unit": "cP"}]}]}
